Source: BindingDB's records for doi:10.1111/j.1749-6632.1998.tb10185.x (Albany Medical College, 1998)
pKi: −log10 of the molar value.

Target: T1, 5-hydroxytryptamine receptor 2C (Rattus norvegicus, UniProt P08909)
T1 sequence (P08909 whole entry): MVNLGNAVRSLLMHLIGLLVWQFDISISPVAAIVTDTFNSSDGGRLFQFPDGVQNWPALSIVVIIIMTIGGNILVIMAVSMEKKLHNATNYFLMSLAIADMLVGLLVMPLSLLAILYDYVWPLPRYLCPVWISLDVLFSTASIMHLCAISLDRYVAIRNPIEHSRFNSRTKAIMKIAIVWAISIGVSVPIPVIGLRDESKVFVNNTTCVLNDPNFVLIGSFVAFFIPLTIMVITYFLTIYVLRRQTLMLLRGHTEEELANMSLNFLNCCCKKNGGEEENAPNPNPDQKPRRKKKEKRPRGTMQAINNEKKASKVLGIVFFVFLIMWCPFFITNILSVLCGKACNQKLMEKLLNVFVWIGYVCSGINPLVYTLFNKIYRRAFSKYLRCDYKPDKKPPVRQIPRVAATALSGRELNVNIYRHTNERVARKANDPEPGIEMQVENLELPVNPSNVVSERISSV

COc1cc(CC(C)N)c(OC)cc1Br (stereo not drawn) [2-(4-Bromo-2,5-dimethoxy-phenyl)-1-methyl-ethylamine((-)-DOB)]
pKi: 6.82
